One compound from patent publication US4550116A, “Piperidine derivatives” (Fordonal, S.A., priority 1983, dated 1985) can be followed below.

Structures are written as SMILES. Where only a bound is given, the exact number is not on record here.

For one series, the system named is mice. Put plainly: in vivo.
The next series can be described thus: in vivo. The settings on record: mouse, po.

One may read the LD50 as the dose at which mortality reaches 50%. In the case of `CC(C)(C)c1ccc(C(=O)CCCN2CCC(OC(c3ccccc3)c3ccccc3)CC2)cc1` [Compound 1, 4-diphenylmethoxy-1-[3-(4-tert-butylbenzoyl)propyl]-piperidine], the “oral toxicity in the mouse” value with mice was “relatively low”. Also, the LD50 at 48 h in “in vivo” was above 1000 mg/kg.
